Target: 4-aminobutyrate aminotransferase, mitochondrial (Sus scrofa, UniProt P80147)

Sequences of proteins named here, by UniProt entry; tags and fusion partners are left off. A change or cut given only in a name is not applied to a line headed by its entry.
UniProt P80147: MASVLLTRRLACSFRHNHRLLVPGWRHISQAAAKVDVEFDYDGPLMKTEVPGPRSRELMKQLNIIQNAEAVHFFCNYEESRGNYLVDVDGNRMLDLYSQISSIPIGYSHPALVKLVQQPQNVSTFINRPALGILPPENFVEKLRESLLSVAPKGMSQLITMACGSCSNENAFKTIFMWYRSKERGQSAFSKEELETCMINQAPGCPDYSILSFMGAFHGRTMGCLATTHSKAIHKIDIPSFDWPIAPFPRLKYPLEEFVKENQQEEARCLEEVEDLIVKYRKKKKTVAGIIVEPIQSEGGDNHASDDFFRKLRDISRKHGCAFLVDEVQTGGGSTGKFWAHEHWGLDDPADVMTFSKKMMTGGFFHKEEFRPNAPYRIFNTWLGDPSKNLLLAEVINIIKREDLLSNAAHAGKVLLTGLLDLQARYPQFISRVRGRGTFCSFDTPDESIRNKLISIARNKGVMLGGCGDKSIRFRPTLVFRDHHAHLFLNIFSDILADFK

| Ki | SMILES |
| --- | --- |
| 11 mM | NCc1cc(F)c(O)c(F)c1 |
| 6.3 mM | NCc1ccc(F)c(O)c1F |

Source: ChEMBL document CHEMBL1132182, “2,6-Difluorophenol as a bioisostere of a carboxylic acid: bioisosteric analogues of gamma-aminobutyric acid” (J Med Chem, 1999)
